Measured values published in patent publication US9187658B2, “Photopolymerizable inkjet ink, ink cartridge, and inkjet recording device” (Ricoh Company, Ltd., priority 2013, dated 2015).

Test system: female mice
Assay: Skin sensitization test, local lymph node assay (LLNA, OECD test guideline 429), BrdU intake by ELISA
Details: test substance 50.0 w/v % in acetone/olive oil 4:1, 25 μL/auricle once a day for 3 days

With “Ethyleneoxide-modified trimethylolpropane trimethacrylate [TMPT-3EO]” the “SI value (Stimulation Index)” value was 1.0.
